± gives the expanded uncertainty stated by the source.
Conditions: Liquid, Vibrating tube method

Which results are given for `CCCCOCCCC` [dibutyl ether]?
mass density (298.15 K, 100 kPa): 763.8 ± 0.7 kg/m3; mass density (298.15 K, 1000 kPa): 764.7 ± 0.7 kg/m3; mass density (298.15 K, 5000 kPa): 768.2 ± 0.7 kg/m3; mass density (298.15 K, 10000 kPa): 772.4 ± 0.7 kg/m3; mass density (298.15 K, 15000 kPa): 776.4 ± 0.8 kg/m3; mass density (298.15 K, 20000 kPa): 780.2 ± 0.8 kg/m3; mass density (298.15 K, 25000 kPa): 783.7 ± 0.8 kg/m3; mass density (298.15 K, 30000 kPa): 787.3 ± 0.8 kg/m3; mass density (298.15 K, 35000 kPa): 790.6 ± 0.8 kg/m3; mass density (298.15 K, 40000 kPa): 793.8 ± 0.8 kg/m3; mass density (298.15 K, 45000 kPa): 796.9 ± 0.9 kg/m3; mass density (298.15 K, 50000 kPa): 799.8 ± 0.9 kg/m3; mass density (298.15 K, 55000 kPa): 802.8 ± 0.9 kg/m3; mass density (298.15 K, 60000 kPa): 805.6 ± 0.9 kg/m3; mass density (298.15 K, 65000 kPa): 808.3 ± 0.9 kg/m3; mass density (298.15 K, 70000 kPa): 811 ± 0.9 kg/m3; mass density (298.15 K, 80000 kPa): 816.1 ± 1 kg/m3; mass density (298.15 K, 90000 kPa): 821 ± 1 kg/m3; mass density (298.15 K, 100000 kPa): 825.5 ± 1 kg/m3; mass density (298.15 K, 110000 kPa): 830 ± 1.1 kg/m3; mass density (298.15 K, 120000 kPa): 834.2 ± 1.1 kg/m3; mass density (298.15 K, 130000 kPa): 838.3 ± 1.1 kg/m3; mass density (298.15 K, 140000 kPa): 842.1 ± 1.2 kg/m3; mass density (313.15 K, 100 kPa): 750.7 ± 0.7 kg/m3; mass density (313.15 K, 1000 kPa): 751.6 ± 0.7 kg/m3; mass density (313.15 K, 5000 kPa): 755.6 ± 0.7 kg/m3; mass density (313.15 K, 10000 kPa): 760.1 ± 0.7 kg/m3; mass density (313.15 K, 15000 kPa): 764.5 ± 0.8 kg/m3; mass density (313.15 K, 20000 kPa): 768.6 ± 0.8 kg/m3; mass density (313.15 K, 25000 kPa): 772.3 ± 0.8 kg/m3; mass density (313.15 K, 30000 kPa): 776.2 ± 0.8 kg/m3; mass density (313.15 K, 35000 kPa): 779.7 ± 0.8 kg/m3; mass density (313.15 K, 40000 kPa): 783.1 ± 0.8 kg/m3; mass density (313.15 K, 45000 kPa): 786.4 ± 0.9 kg/m3; mass density (313.15 K, 50000 kPa): 789.7 ± 0.9 kg/m3; mass density (313.15 K, 55000 kPa): 792.7 ± 0.9 kg/m3; mass density (313.15 K, 60000 kPa): 795.7 ± 0.9 kg/m3; mass density (313.15 K, 65000 kPa): 798.6 ± 0.9 kg/m3; mass density (313.15 K, 70000 kPa): 801.4 ± 1 kg/m3; mass density (313.15 K, 80000 kPa): 806.7 ± 1 kg/m3; mass density (313.15 K, 90000 kPa): 811.9 ± 1 kg/m3; mass density (313.15 K, 100000 kPa): 816.7 ± 1.1 kg/m3; mass density (313.15 K, 110000 kPa): 821.4 ± 1.1 kg/m3; mass density (313.15 K, 120000 kPa): 825.7 ± 1.1 kg/m3; mass density (313.15 K, 130000 kPa): 830.1 ± 1.2 kg/m3; mass density (313.15 K, 140000 kPa): 834.2 ± 1.2 kg/m3; mass density (333.15 K, 100 kPa): 733 ± 0.7 kg/m3; mass density (333.15 K, 1000 kPa): 734 ± 0.7 kg/m3; mass density (333.15 K, 5000 kPa): 738.5 ± 0.7 kg/m3; mass density (333.15 K, 10000 kPa): 743.6 ± 0.8 kg/m3; mass density (333.15 K, 15000 kPa): 748.6 ± 0.8 kg/m3; mass density (333.15 K, 20000 kPa): 753.1 ± 0.8 kg/m3; mass density (333.15 K, 25000 kPa): 757.5 ± 0.8 kg/m3; mass density (333.15 K, 30000 kPa): 761.5 ± 0.8 kg/m3; mass density (333.15 K, 35000 kPa): 765.5 ± 0.8 kg/m3; mass density (333.15 K, 40000 kPa): 769.2 ± 0.9 kg/m3; mass density (333.15 K, 45000 kPa): 772.7 ± 0.9 kg/m3; mass density (333.15 K, 50000 kPa): 776.2 ± 0.9 kg/m3; mass density (333.15 K, 55000 kPa): 779.6 ± 0.9 kg/m3; mass density (333.15 K, 60000 kPa): 782.7 ± 0.9 kg/m3; mass density (333.15 K, 65000 kPa): 785.8 ± 1 kg/m3; mass density (333.15 K, 70000 kPa): 788.8 ± 1 kg/m3; mass density (333.15 K, 80000 kPa): 794.6 ± 1 kg/m3; mass density (333.15 K, 90000 kPa): 800 ± 1.1 kg/m3; mass density (333.15 K, 100000 kPa): 805.2 ± 1.1 kg/m3; mass density (333.15 K, 110000 kPa): 810 ± 1.1 kg/m3; mass density (333.15 K, 120000 kPa): 814.7 ± 1.2 kg/m3; mass density (333.15 K, 130000 kPa): 819.3 ± 1.2 kg/m3; mass density (333.15 K, 140000 kPa): 823.5 ± 1.2 kg/m3; mass density (353.15 K, 100 kPa): 715 ± 0.7 kg/m3; mass density (353.15 K, 1000 kPa): 716.2 ± 0.7 kg/m3; mass density (353.15 K, 5000 kPa): 721.3 ± 0.7 kg/m3; mass density (353.15 K, 10000 kPa): 727.2 ± 0.8 kg/m3; mass density (353.15 K, 15000 kPa): 732.7 ± 0.8 kg/m3; mass density (353.15 K, 20000 kPa): 737.8 ± 0.8 kg/m3; mass density (353.15 K, 25000 kPa): 742.6 ± 0.8 kg/m3; mass density (353.15 K, 30000 kPa): 747.1 ± 0.8 kg/m3; mass density (353.15 K, 35000 kPa): 751.4 ± 0.9 kg/m3; mass density (353.15 K, 40000 kPa): 755.4 ± 0.9 kg/m3; mass density (353.15 K, 45000 kPa): 759.3 ± 0.9 kg/m3; mass density (353.15 K, 50000 kPa): 763 ± 0.9 kg/m3; mass density (353.15 K, 55000 kPa): 766.6 ± 0.9 kg/m3; mass density (353.15 K, 60000 kPa): 770.1 ± 1 kg/m3; mass density (353.15 K, 65000 kPa): 773.4 ± 1 kg/m3; mass density (353.15 K, 70000 kPa): 776.7 ± 1 kg/m3; mass density (353.15 K, 80000 kPa): 782.7 ± 1 kg/m3; mass density (353.15 K, 90000 kPa): 788.5 ± 1.1 kg/m3; mass density (353.15 K, 100000 kPa): 794 ± 1.1 kg/m3; mass density (353.15 K, 110000 kPa): 799.2 ± 1.2 kg/m3; mass density (353.15 K, 120000 kPa): 804 ± 1.2 kg/m3; mass density (353.15 K, 130000 kPa): 808.7 ± 1.2 kg/m3; mass density (353.15 K, 140000 kPa): 813.3 ± 1.3 kg/m3; mass density (373.15 K, 1000 kPa): 697.9 ± 0.7 kg/m3; mass density (373.15 K, 5000 kPa): 703.8 ± 0.7 kg/m3; mass density (373.15 K, 10000 kPa): 710.5 ± 0.8 kg/m3; mass density (373.15 K, 15000 kPa): 716.7 ± 0.8 kg/m3; mass density (373.15 K, 20000 kPa): 722.4 ± 0.8 kg/m3; mass density (373.15 K, 25000 kPa): 727.7 ± 0.8 kg/m3; mass density (373.15 K, 30000 kPa): 732.7 ± 0.8 kg/m3; mass density (373.15 K, 35000 kPa): 737.4 ± 0.9 kg/m3; mass density (373.15 K, 40000 kPa): 741.9 ± 0.9 kg/m3; mass density (373.15 K, 45000 kPa): 746.1 ± 0.9 kg/m3; mass density (373.15 K, 50000 kPa): 750 ± 0.9 kg/m3; mass density (373.15 K, 55000 kPa): 754 ± 1 kg/m3; mass density (373.15 K, 60000 kPa): 757.7 ± 1 kg/m3; mass density (373.15 K, 65000 kPa): 761.2 ± 1 kg/m3; mass density (373.15 K, 70000 kPa): 764.6 ± 1 kg/m3; mass density (373.15 K, 80000 kPa): 771.2 ± 1.1 kg/m3; mass density (373.15 K, 90000 kPa): 777.3 ± 1.1 kg/m3; mass density (373.15 K, 100000 kPa): 783 ± 1.2 kg/m3; mass density (373.15 K, 110000 kPa): 788.5 ± 1.2 kg/m3; mass density (373.15 K, 120000 kPa): 793.6 ± 1.2 kg/m3; mass density (373.15 K, 130000 kPa): 798.6 ± 1.3 kg/m3; mass density (373.15 K, 140000 kPa): 803.3 ± 1.3 kg/m3; mass density (393.15 K, 1000 kPa): 679 ± 0.7 kg/m3; mass density (393.15 K, 5000 kPa): 685.9 ± 0.8 kg/m3; mass density (393.15 K, 10000 kPa): 693.5 ± 0.8 kg/m3; mass density (393.15 K, 15000 kPa): 700.6 ± 0.8 kg/m3; mass density (393.15 K, 20000 kPa): 706.9 ± 0.8 kg/m3; mass density (393.15 K, 25000 kPa): 712.8 ± 0.8 kg/m3; mass density (393.15 K, 30000 kPa): 718.3 ± 0.9 kg/m3; mass density (393.15 K, 35000 kPa): 723.5 ± 0.9 kg/m3; mass density (393.15 K, 40000 kPa): 728.3 ± 0.9 kg/m3; mass density (393.15 K, 45000 kPa): 732.8 ± 0.9 kg/m3; mass density (393.15 K, 50000 kPa): 737.2 ± 0.9 kg/m3; mass density (393.15 K, 55000 kPa): 741.4 ± 1 kg/m3; mass density (393.15 K, 60000 kPa): 745.3 ± 1 kg/m3; mass density (393.15 K, 65000 kPa): 749.1 ± 1 kg/m3; mass density (393.15 K, 70000 kPa): 752.8 ± 1.1 kg/m3; mass density (393.15 K, 80000 kPa): 759.7 ± 1.1 kg/m3; mass density (393.15 K, 90000 kPa): 766.2 ± 1.1 kg/m3; mass density (393.15 K, 100000 kPa): 772.3 ± 1.2 kg/m3; mass density (393.15 K, 110000 kPa): 778.1 ± 1.2 kg/m3; mass density (393.15 K, 120000 kPa): 783.4 ± 1.3 kg/m3; mass density (393.15 K, 130000 kPa): 788.6 ± 1.3 kg/m3; mass density (393.15 K, 140000 kPa): 793.6 ± 1.4 kg/m3

Reference: the NIST ThermoML archive (doi:10.1016/j.jct.2018.11.010)
